US20050014700A1, “Cbi analogues of cc-1065 and the duocarmycins” (priority 2001, published 2005)

Tested on: L1210
Conditions: for enhancement in cytotoxic potency relative to (+)-N-Boc-CBI: relative to N-Boc-CBI (80 nM)

1-(Chloromethyl)-5-hydroxy-3-{[4-[4-(tert-Butoxycarbonylaminothiophen-2-yl)carbonyl]aminothiophen-2-yl]carbonyl}-1,2-dihydrobenzo[e]indole [X8-Y8]
enhancement in cytotoxic potency relative to (+)-N-Boc-CBI: 275 fold

1-(Chloromethyl)-5-hydroxy-3-{[4-[4-(tert-Butoxycarbonylamino)-1-methylpyrrol-2-yl)carbonyl]amino-1-methylpyrrol-2-yl]carbonyl}-1,2-dihydrobenzo[e]indole [X10-Y10]
lower cytotoxicity compared to 25: 100 fold | enhancement in cytotoxic potency relative to (+)-N-Boc-CBI: 180 fold
